Experimental data published in patent publication US20130323314A1, “Novel Nanoparticles of Lactoferrin Useful for Preparing a Pharmaceutical Composition Facilitating Easy Delivery of the Drug and a Process for Preparing the Same” (UNIVERSITY OF HYDERABAD, priority 2011, published 2013).

Experiment: Pharmacokinetics and tissue distribution after intravenous administration
Conditions: Liver, rat

COc1cccc2c1C(=O)c1c(O)c3c(c(O)c1C2=O)C[C@@](O)(C(=O)CO)C[C@@H]3O[C@H]1C[C@H](N)[C@H](O)[C@H](C)O1 [Doxo, Doxorubicin hydrochloride]
AUC: 713.776 (h) * (μg/g)

Structures can show the parent of a compound that is named as a salt. Marks after values point to notes of the source that are not given here.
